Experimental data reported in US20210340177A1, “BIOACTIVE PEPTIDES HAVING HIGH BINDING AFFINITY TO HUMAN MUSCULAR NICOTINIC ACETYLCHOLINE RECEPTOR” (priority 2020, published 2021).
“Also recorded” adds a separate entry of the source.

Test system: muscle cells
Format: cell-based
Experimental: The efficacy of peptides V0083091A (KKYK; SEQ ID NO: 1) and V0083092A (KWKK; […]. Muscle cells were incubated or treated without (control) or with compounds, for example, peptides V0083091A and V0083092A, and contraction of the muscle cells was evaluated after incubation for 5 hours, after incubation for 24 hours, or after incubation for 24 hours followed by a washing step.

CN1C(=O)CN=C(c2ccccc2)c2cc(Cl)ccc21 [diazepam]
Inhibition of contraction of muscle cells, compared with spilanthol: same profile as spilanthol; also recorded: slightly larger
